Measurements as given in patent publication US7342016B2, “Farnesyl protein transferase inhibitors as antitumor agents” (Schering Corporation, priority 2000, dated 2008).

By UniProt entry, the sequences of proteins in these tests, tags left out.
UniProt P49356, whole entry: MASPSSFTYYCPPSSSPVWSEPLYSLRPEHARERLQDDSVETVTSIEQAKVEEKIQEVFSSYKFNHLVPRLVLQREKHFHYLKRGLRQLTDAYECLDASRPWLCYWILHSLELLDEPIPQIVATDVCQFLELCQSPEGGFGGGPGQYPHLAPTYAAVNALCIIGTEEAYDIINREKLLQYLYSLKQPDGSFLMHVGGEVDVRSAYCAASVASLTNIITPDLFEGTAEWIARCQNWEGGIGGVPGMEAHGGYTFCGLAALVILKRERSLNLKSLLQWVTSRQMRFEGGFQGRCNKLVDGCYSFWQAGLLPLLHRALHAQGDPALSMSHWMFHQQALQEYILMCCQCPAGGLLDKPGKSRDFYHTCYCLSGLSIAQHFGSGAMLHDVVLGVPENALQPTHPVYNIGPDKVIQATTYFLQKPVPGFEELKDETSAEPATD

What was measured:
[1] = system: Human tumor cells; experiment: Soft Agar Assay (anchorage-independent growth, colony count); settings: read-out: Soft Agar IC50
Description: Anchorage-independent growth is a characteristic of tumorigenic cell lines. Human tumor cells can be suspended in growth medium containing 0.3% agarose and an indicated concentration of a farnesyl transferase inhibitor. The solution can be overlayed onto growth medium solidified with 0.6% agarose containing the same concentration of farnesyl transferase inhibitor as the top layer. After the top layer is solidified, plates can be incubated for 10-16 days at 37° C. under 5% CO2 to allow colony outgrowth. After incubation, the colonies can be stained by overlaying the agar with a solution of MTT (3-[4,5-dimethyl-thiazol-2-yl]-2,5-diphenyltetrazolium bromide, Thiazolyl blue) (1 mg/mL in PBS). Colonies can be counted and the IC50's can be determined.

[2] = target: purified human farnesyl protein transferase (Homo sapiens, UniProt P49354+P49356); experiment: FPT activity: transfer of [3H] farnesyl from [3H] farnesyl pyrophosphate to biotinylated H-ras peptide (SPA); settings: read-out: FPT IC50
Description: FPT activity was determined by measuring the transfer of [^3H] farnesyl from [^3H] farnesyl pyrophosphate to a biotinylated peptide derived from the C-terminus of H-ras (biotin-CVLS). The reaction mixture contains: 50 mM Tris pH7.7, 5 MM MgCl2, 5 μM Zn^++, 5 mM DTT, 0.1% Triton-X, 0.05 μM peptide, 0.03 nM purified human farnesyl protein transferase, 0.180 μM [^3H] farnesyl pyrophosphate, plus the indicated concentration of tricyclic compound or vehicle control in a total volume of 100 μl. The reaction was incubated in a Vortemp shaking incubator at 37° C., 45 RPM for 60 minutes and stopped with 150 μl of 0.25 M EDTA containing 0.5% BSA and 1.3 mg/ml Streptavidin SPA beads. Radioactivity was measured in a Wallach 1450 Microbeta liquid scintillation counter. Percent inhibition was calculated relative to the vehicle control.

SMILES: CC(C)OC(=O)NC(C1=Cc2cccnc2[C@@H](N2CCN(C(=O)OC(C)C)CC2)c2ccc(Cl)cc21)c1cncn1C (single isomer, unassigned)
- pIC50 [1]: > 9.30
- pIC50 [2]: 8.92

pIC50: −log10 of the molar value.
